This assay relates to MES SA DX. Briefly: Cytotoxicity assay (CellTiter-Glo), MES SA DX. The settings on record: read-out: Cancer cell lines IC50, MES SA DX, MES SA cell line with marked multidrug resistance, 72 hours. It is filed as cell-based, human. (In general: Cellular ATP, detected with luciferase, serves as a proxy for viable cell number.)

One may read the IC50 as the concentration that inhibits the measured activity by half. For `CC(=Cc1csc(C)n1)C1CC=CCCCC(C)C(O)C(C)C(=O)C(C)(C)C(O)CC(=O)O1` (stereo not shown) [compound 3, epothilone C, reference compound], the IC50 is 62 nM.

The values are drawn from patent publication US20210238187A1, “AZIRIDINE CONTAINING EPOTHILONE ANALOGS, METHODS OF SYNTHESIS, METHODS OF TREATMENT, AND DRUG CONJUGATES” (WILLIAM MARSH RICE UNIVERSITY, priority 2017, published 2021).
